Source: US8633232B2, “Compounds, compositions and methods of using same for modulating uric acid levels” (Ardea Biosciences, Inc., priority 2008, dated 2014)

By UniProt entry, the sequences of proteins in these tests, tags left out. Where a name states a change or a piece, a line headed by the entry shows the natural chain unless it says otherwise.
UniProt Q96S37: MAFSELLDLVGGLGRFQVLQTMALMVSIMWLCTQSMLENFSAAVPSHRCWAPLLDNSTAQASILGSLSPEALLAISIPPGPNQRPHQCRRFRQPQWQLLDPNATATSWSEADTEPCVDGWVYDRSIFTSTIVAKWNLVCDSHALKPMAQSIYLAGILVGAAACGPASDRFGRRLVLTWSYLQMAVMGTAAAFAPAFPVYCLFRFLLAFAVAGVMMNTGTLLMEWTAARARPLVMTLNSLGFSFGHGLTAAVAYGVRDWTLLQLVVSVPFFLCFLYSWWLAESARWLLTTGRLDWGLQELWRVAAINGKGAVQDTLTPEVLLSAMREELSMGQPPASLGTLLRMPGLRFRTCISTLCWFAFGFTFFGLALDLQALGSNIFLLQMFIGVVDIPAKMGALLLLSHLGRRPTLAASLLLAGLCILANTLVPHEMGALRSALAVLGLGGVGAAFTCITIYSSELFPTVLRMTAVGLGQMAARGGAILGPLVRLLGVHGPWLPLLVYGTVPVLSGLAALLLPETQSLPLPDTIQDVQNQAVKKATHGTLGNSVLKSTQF

Biological target: T1, hURAT1 Transporter (Homo sapiens, UniProt Q96S37)
T1 construct: Full-length human URAT1 gene (SLC22A12) was subcloned from plasmid pCMV6-XL5
Test: Uric Acid Uptake Assay
Format: cell-based
Conditions: HEK293/urat1 cells; C14 Uric Acid 40 μM; 10 minutes at room temperature
Excerpt: Creation of Stable Cell Lines Expressing hURAT1 Transporter: Full-length human URAT1 gene (SLC22A12) was subcloned from plasmid pCMV6-XL5 (Origene) into eukaryotic expression plasmid pCMV6/Neo (Origene) using Not I restriction sites. Gene sequencing confirmed the sequence of hURAT1 as outlined in Genbank (Accession #NM_144585.2). HEK293 human embryonic kidney cells (ATCC#CRL-1573) were propagated in EMEM tissue culture medium as described by ATCC in an atmosphere of 5% CO2 and 95% air. Transfections of HEK293 cells with the pCMV6/Neo/URAT1 construct were performed using L2000 transfection reagent (Invitrogen) as described by the manufacturer. After 24 h the transfected cells were split into 10 cm tissue culture plates and grown for 1 day after which the medium was replaced with fresh growth medium containing G418 (Gibco) at 0.5 mg/ml final concentration. Drug-resistant colonies were selected after approximately 8 days and then tested for ^14C-uric acid transport activity. The HEK293/urat1 cells are plated on Poly-D-Lysine Coated 96-well Plates at a density of 75,000 cells per well.
Cells were grown overnight (20-26 hours) at 37° C. in an incubator. Plates were allowed to come to room temperature and media was washed out with one wash of […] of Wash Buffer (125 mM Na Gluconate, 10 mM Hepes ph 7.3). […] Plates are then read on the TopCount Plate Reader and an EC50 value generated. […]

- EC50: 1 to 30 µM
SMILES: O=C(O)CSc1nnc(Br)n1-c1ccc(C2CC2)c2ccccc12 [Example 8, 2-(5-bromo-4-(4-cyclopropylnaphthalen-1-yl)-4H-1,2,4-triazol-3-ylthio)acetic acid]
